Test results reported in article PMC3252304, “Hydroxybenzothiazoles as New Nonsteroidal Inhibitors of 17β-Hydroxysteroid Dehydrogenase Type 1 (17β-HSD1)” (PLoS ONE, 2012).

Experiments:
[1] = target: T1, human 17β-HSD1 (Homo sapiens, UniProt P14061); assay: 17β-HSD1 cell free assay (placental cytosolic enzyme, [3H]E1 to E2, HPLC radiodetection); format: biochemical; conditions: human placenta cytosolic fraction, [3H]E1 + E1 500 nM, NADH 500 µM; mean of three determinations
T1 construct: In the cell free assay, the placental cytosolic enzyme was used; from tissue; host or cells: human placenta, cytosolic fraction, ammonium sulfate precipitate
T1 sequence (P14061 1-328): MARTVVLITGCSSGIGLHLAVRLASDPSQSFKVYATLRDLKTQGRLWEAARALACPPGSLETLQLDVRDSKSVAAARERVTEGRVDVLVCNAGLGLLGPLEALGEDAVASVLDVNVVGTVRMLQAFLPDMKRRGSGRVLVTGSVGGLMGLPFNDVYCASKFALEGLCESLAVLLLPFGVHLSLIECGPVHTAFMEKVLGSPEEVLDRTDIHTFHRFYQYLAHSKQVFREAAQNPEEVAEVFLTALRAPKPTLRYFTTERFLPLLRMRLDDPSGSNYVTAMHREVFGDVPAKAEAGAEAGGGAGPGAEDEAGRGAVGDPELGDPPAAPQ
Procedure: In the cell free assay, the placental cytosolic enzyme was used. Tritiated E1 (final concentration: 500 nM) was incubated with 17β-HSD1, NADH (500 µM), and inhibitor as previously described. After high performance liquid chromatography (HPLC) separation of substrate and product, the amount of labeled E2 formed was quantified. […] IC50 values were determined for compounds showing more than 70% inhibition at 1 µM. Compound 2 (Figure 1), identified in a previous study, was used as internal reference (IC50 = 8 nM).
17β-HSD1 and 17β-HSD2 were obtained from human placenta according to previously described procedures. Fresh human placenta was homogenized and cytosolic fraction and microsomes were separated by centrifugation. For the partial purification of 17β-HSD1, the cytosolic fraction was precipitated with ammonium sulfate. 17β-HSD2 was obtained from the microsomal fraction.
Inhibition of 17β-HSD1. Inhibitory activities were evaluated by an established method with minor modifications. […] Detection and quantification of the steroids were performed using a radioflow detector (Berthold Technologies, Bad Wildbad). The conversion rate was calculated after analysis of the resulting chromatograms according to the following equation: % conversion = % E2/(% E2 + % E1) × 100. Each value was calculated from at least three independent experiments.

[2] = target: T2, 17β-HSD1 in T47-D cells (Homo sapiens, UniProt P14061); assay: Intracellular potency: inhibition of E2 formation in T47-D cells; format: cell-based; conditions: labeled E1 50 nM, 0.5 h incubation
T2 construct: cell line (obtained from ECACC, Salisbury) that expresses 17β-HSD1; host or cells: T47-D cells
T2 sequence (P14061 1-328): T1 sequence (P14061 1-328)

pIC50 [1]: 6.61
pIC50 [2]: 6.61
Structure (SMILES): O=C(Nc1nc2ccc(O)cc2s1)c1cccc(O)c1 [Compound 21]

pIC50: −log10 of the molar value.
